# Columns and labels:
# Amino acid sequences for entries named in this document (tags omitted).
# UniProt P10275, whole entry: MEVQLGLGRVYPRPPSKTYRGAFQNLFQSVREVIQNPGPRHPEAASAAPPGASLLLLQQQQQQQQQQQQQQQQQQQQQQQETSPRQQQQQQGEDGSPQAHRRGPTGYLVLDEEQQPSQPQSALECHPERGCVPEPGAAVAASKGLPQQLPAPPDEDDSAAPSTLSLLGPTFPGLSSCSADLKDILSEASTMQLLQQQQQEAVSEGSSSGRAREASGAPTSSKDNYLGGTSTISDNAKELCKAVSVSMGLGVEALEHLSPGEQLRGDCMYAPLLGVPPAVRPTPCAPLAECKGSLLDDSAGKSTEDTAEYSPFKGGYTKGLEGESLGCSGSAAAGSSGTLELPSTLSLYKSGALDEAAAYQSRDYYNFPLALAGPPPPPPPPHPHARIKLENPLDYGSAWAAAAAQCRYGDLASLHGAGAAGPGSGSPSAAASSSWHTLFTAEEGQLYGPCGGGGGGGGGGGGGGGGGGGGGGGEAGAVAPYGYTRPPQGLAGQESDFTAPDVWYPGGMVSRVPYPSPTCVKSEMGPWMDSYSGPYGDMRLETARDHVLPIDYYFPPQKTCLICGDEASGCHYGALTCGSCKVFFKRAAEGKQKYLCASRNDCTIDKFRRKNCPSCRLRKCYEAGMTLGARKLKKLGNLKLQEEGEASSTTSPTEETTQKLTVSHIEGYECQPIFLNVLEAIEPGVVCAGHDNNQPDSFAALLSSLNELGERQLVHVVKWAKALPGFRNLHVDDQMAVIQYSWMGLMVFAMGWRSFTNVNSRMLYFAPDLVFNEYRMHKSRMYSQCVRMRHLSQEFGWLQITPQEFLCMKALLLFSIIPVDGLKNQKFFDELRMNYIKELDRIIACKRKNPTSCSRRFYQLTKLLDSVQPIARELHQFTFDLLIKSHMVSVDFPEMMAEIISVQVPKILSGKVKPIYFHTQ
# UniProt P15207, whole entry S389L: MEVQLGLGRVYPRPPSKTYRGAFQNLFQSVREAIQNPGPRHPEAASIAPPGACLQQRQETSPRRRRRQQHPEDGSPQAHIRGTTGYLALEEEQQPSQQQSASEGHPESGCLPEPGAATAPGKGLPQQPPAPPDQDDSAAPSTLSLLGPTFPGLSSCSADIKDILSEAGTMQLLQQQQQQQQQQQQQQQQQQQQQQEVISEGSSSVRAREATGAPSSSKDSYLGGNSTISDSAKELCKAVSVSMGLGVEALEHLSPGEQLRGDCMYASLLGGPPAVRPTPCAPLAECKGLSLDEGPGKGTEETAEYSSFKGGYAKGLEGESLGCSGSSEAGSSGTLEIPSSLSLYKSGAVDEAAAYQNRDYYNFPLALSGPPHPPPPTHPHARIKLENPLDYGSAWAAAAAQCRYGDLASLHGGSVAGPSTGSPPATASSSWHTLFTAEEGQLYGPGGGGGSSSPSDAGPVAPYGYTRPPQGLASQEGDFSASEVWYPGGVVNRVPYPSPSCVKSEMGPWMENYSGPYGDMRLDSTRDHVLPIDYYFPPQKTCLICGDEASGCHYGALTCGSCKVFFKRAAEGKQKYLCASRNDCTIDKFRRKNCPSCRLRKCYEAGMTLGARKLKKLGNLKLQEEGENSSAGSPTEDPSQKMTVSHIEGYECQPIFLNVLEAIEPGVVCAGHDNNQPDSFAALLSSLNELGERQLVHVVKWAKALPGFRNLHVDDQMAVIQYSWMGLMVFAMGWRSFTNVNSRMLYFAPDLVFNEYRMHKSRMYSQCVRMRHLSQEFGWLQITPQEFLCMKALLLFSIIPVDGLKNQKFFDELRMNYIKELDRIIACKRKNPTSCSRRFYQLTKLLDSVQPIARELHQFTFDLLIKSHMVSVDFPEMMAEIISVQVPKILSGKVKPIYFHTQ
# [1] = biological target: hAR (Homo sapiens, UniProt P10275); experiment: Cotransfection assay: AR-mediated transcriptional activation in CV-1 cells (luciferase reporter); type: cell-based; conditions: wild type AR
# [2] = biological target: Cytosolic AR (Rattus norvegicus, UniProt P15207); experiment: AR competitive binding assay (3H-MIB displacement, rat ventral prostate cytosol)
compound,measurement,setting,value
CC(=O)c1ccc(S(=O)(=O)C[C@](C)(O)C(=O)Nc2ccc([N+](=O)[O-])c(C(F)(F)F)c2)cc1,in vitro functional activity (agonist / partial agonist / antagonist),[1],agonist
same,Ki,[2],9.3 nM

# From patent US20090156614A1, “Selective androgen receptor modulators, analogs and derivatives thereof and uses thereof” (priority 2006, published 2009)
